The text below walks through data of patent publication US4780313A (Takeda Chemical Industries, Ltd., priority 1985, dated 1988).

One series has as its system Meth-A tumor cells. As to the kind of experiment: Antitumor activity, intravenous administration, Meth-A tumor-bearing mice (Examples 2 and 3). It counts as in vivo, female BALB/c mice. The note with it: day 21. The method, then: Meth-A tumor cells (1×10^6 cells) were transplanted into each female BALB/c mice (weighting about 20 g) subcutaneously in the flank with a syringe. Seven days after tumor transplantation, mice in which tumor was larger than a certain defined size were chosen and grouped and administration of the test agent was started. The agent was administered via the caudal vein once daily for 10 consecutive days. Each ingredient of the test agent was dissolved in physiological saline (solvent) in the form of a single preparation supplemental with 5% of normal mouse serum in a concentration such that the dose of the solution amounted to 0.2 ml/20 g of mouse body weight. The antitumor effect was evaluated by measuring the tumor weight in each animal 21 days after tumor transplantation, determining the average tumor weight for each group and calculating the tumor weight ratio (T/C%) between the dosed group (T; 5 animals per group) and the untreated control group (C; 10 animals). […] The daily dose of each ingredient was expressed in terms of the ingredient weight (mcg) per mouse.

For series [1], the system named is Meth-A fibrosarcoma cells (Meth-A tumor cells). As to the kind of experiment: Antitumor activity, subcutaneous administration, Meth-A tumor-bearing mice (Examples 1 and 4). It counts as in vivo, female BALB/c mice. The note with it: day 21. As for the experimental part:
Meth-A fibrosarcoma cells (Meth-A tumor cells) (1×10^6 cells) were transplanted into each female BALB/c mice (weighing about 20 g) subcutaneously in the flank using a syringe. Seven days after tumor transplantation, mice in which tumor was larger than a certain defined size were chosen and grouped and administration of the test agent was started. The agent was administered subcutaneously in the opposite flank relative to the tumor transplantation site once daily for 10 consecutive days. Each ingredient of the test agent was dissolved in physiological saline (solvent) supplemented in a form of a single preparation with 5% of normal mouse serum in a concentration such that the dose of the solution amounted to 0.1 ml/20 g of mouse body weight. The antitumor effect was evaluated by measuring the tumor weight in each mouse 21 days after tumor transplantation, determining the average tumor weight for each group and calculating the tumor weight ratio (T/C %) between the dosed group (T; 5 animals per group) and the untreated control group (C; 5 to 10 animals per group). The daily dose of each ingredients was expressed in terms of the ingredient weight (mcg) per mouse.

Series [2] in a line: Minimum lethal dose of IL-2 (S.C.) in mouse. The series is classed as in vivo. The note with it: 1 mg=3.5×10^4 units.

Turning to “IL-2: genetically engineered IL-2 species employing Escherichia coli DH1/pTF4, prepared per EPC Publication No. 145390”, the “Tumor weight (mg) Mean ± SD” value in the series on Meth-A tumor cells (Table 2, IL-2 10, TMD-1 0 mcg/mouse/day i.v. x10 days) is recorded as 4,368 ± 959 mg; with Meth-A tumor cells (Table 3, IL-2 10, Quinonyl-MDP-66 0 mcg/mouse/day i.v. x10 days) it was 1,999 ± 709 mg; in series [1] (Experiment I, IL-2 10, TMD-1 0 mcg/mouse/day s.c. x10 days), 2,359 ± 1,064 mg; in series [1] (Experiment II, IL-2 10, TMD-1 0 mcg/mouse/day s.c. x10 days) it was 2,605 ± 709 mg; in series [1] (Table 4, IL-2 10 mcg/mouse/day alone s.c. x10 days) it was 3,072 ± 837 mg. Besides, the “minimum lethal doses (MLDs)” value in series [2] is on record as “not less than 10 mg/mouse”.
